{"source": "ChEMBL document CHEMBL1153815", "about": "“Mapping the ribonucleolytic active site of bovine seminal ribonuclease. The binding of pyrimidinyl phosphonucleotide inhibitors” (Eur J Med Chem, 2009)", "target": "T1, Seminal ribonuclease (Bos taurus, UniProt P00669)", "T1 sequence (P00669 whole entry)": "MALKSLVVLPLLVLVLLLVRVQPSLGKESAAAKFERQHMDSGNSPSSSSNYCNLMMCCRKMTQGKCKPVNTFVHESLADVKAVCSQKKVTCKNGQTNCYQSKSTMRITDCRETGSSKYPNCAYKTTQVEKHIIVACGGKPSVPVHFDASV", "assay": "Inhibition of bovine seminal ribonuclease assessed as enzyme activity by spectrophotometric method at pH 6", "data": [{"smiles": "O=c1ccn([C@@H]2O[C@H](COP(=O)(O)OP(=O)(O)O)[C@@H](O)[C@H]2O)c(=O)[nH]1", "note": "[URIDINE_DIPHOSPHATE]", "values": [{"measurement": "Ki", "value": 1050, "unit": "µM"}]}]}
